Biological target: GPR139 (Homo sapiens, UniProt Q6DWJ6)
Experiment: GPR139 FLIPR cell calcium signal detection in GPR139-transfected HEK293 cells
Conditions: read-out: EC50 values of compounds for GPR139, HEK293 cells transfected with GPR139
Description: HEK293 cells were grown in a 10 cm culture dish containing DMEM complete medium (containing glutamine, sodium pyruvate, penicillin/streptomycin, 10% fetal bovine serum) and incubated at 37° C. in a 5% CO2 incubator until 90% confluency. Then subculture twice a week at a ratio of 1:5. During cell passaging, the culture medium was first completely removed, washed once with 4 mL of DPBS, and then 3 mL of trypsin digestion solution was added and mixed well. When cell dissociation was observed, the trypsin solution was aspirated and 5 mL of complete DMEM medium was added. The cells were dispersed by pipetting, and 1 mL of cell suspension was added to each of five new 10 cm culture dishes. Then, 7 mL of complete DMEM medium was supplemented to each dish. After mixing, the cells were cultured at 37° C. in a 5% CO2 incubator.
On the transfection day, cells were digested and seeded into one 10 cm culture dish at appropriate density. […]
On the third day, 10 μL/well of FLIPR dye (diluted in HEPES solution containing Pluronic and Probenecid) was added to the 384-well cell plate. […] Diluted compounds were added to the cell plate and calcium signals were measured using a FLIPR plate reader.
Data were analyzed using XL-fit software to obtain EC50 values for each compound.

By UniProt entry, the sequences of proteins in these tests, tags left out.
UniProt Q6DWJ6, whole entry: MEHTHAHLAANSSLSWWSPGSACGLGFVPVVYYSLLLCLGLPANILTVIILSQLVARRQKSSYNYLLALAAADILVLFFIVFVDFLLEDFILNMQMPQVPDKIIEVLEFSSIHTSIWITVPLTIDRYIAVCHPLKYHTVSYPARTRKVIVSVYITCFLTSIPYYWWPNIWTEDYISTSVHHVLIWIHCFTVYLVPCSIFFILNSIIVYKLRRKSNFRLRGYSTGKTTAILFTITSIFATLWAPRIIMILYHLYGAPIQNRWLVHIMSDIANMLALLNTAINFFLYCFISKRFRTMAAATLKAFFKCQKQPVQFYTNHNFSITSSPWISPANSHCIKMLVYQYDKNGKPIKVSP

C[C@H](NC(=O)[C@H](CO)NC(=O)c1cccc(F)c1)c1ccccc1F
EC50: 100 to 1000 nM

From US20260166016A1, “GPR139 RECEPTOR AGONIST, PREPARATION METHOD THEREFOR, AND APPLICATION THEREOF” (NEUBO APPTECH CO., LTD., priority 2022, published 2026)
